Experimental data from patent publication EP0989125B1, “Pesticidal furylmethyl cyclopropanecarboxylates” (Sumitomo Chemical Company, Limited, priority 1998, dated 2000).
Read-outs that look alike come from different tables or passages of the source.

Tested on: houseflies (Musca domestica)

Cc1ccc(COC(=O)[C@@H]2[C@H](/C=C(\Cl)C(F)(F)F)C2(C)C)o1 (racemic) [present compound (1), 5-methyl-2-furfuryl (1RS,cis)-3-(Z-2-chloro-3,3,3-trifluoroprop-1-enyl)-2,2-dimethylcyclopropanecarboxylate]
Mortality (%) (Present compound (1) 0.5 µg/female + Piperonyl butoxide 1.0 µg/female, after 24 hours): 95%
Mortality (%) (Present compound (1) 0.5 µg/female, Piperonyl butoxide 0, after 24 hours): 30%
